This assay addresses T1, Quinolone resistance protein NorA (Staphylococcus aureus) (UniProt P0A0J7).
T1 sequence (whole entry): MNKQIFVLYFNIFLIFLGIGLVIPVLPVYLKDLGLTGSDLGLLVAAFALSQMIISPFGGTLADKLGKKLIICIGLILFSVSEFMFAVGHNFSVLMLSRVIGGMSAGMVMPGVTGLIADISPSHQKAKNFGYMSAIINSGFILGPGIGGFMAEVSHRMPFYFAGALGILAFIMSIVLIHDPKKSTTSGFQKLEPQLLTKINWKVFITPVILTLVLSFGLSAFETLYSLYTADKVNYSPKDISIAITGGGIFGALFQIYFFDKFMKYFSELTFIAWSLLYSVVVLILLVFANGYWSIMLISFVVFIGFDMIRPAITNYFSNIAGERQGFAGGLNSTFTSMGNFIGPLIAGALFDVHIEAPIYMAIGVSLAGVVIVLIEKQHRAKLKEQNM
To be noted: 1199B.

Compound `CC(C)CN(CC(C)C)C(=O)/C=C/C1=C(Cc2ccccc2)c2ccccc2CC1` yielded an MEC of over 100 µg/mL.
Then `COc1cc2c(cc1OC1CC1)C=C(/C=C/C(=O)NCC(C)C)CC2`, with 12.5 µg/mL.
Then `CC(C)CNC(=O)/C=C/C1=Cc2ccccc2CC1`, with 12.5 µg/mL; and `CC(C)N(C(=O)/C=C/C1=C(c2ccccc2)c2ccccc2CC1)C(C)C`, with over 100 µg/mL.
As for `CC(C)CNC(=O)CCC1CCc2ccccc2C1` (stereo not given), the MEC amounted to 25 µg/mL.
Then `CC(C)N(C(=O)/C=C/C1=C(Cc2ccccc2)c2ccccc2CC1)C(C)C`, with over 100 µg/mL; and `COc1cc2c(cc1OC)CCC(/C=C/C(=O)NCC(C)C)=C2`, with 12.5 µg/mL; and `COc1cc2c(cc1OC)CCC(/C=C/C(=O)N1CCOCC1)=C2`, with over 100 µg/mL.
On to `CCCCCCCCNC(=O)/C=C/C1=Cc2cc(OC)c(OC)cc2CC1`, for which the MEC is over 100 µg/mL.
In the case of `O=C(/C=C/C1=C(Cc2ccccc2)c2ccccc2CC1)Nc1ccc2c(c1)OCO2`, the MEC is over 100 µg/mL.
On to `CC(C)CNC(=O)/C=C/C1=C(Cc2ccccc2)c2ccccc2CC1`, for which the MEC was over 100 µg/mL.
`O=C(CCC1CCc2ccccc2C1c1ccccc1)N1CCCCC1` (stereo not given) gave an MEC of 25 µg/mL.
For `O=C(/C=C/C1=C(c2ccccc2)c2ccccc2CC1)Nc1cccc2ccccc12` the value was over 100 µg/mL; for `O=C(/C=C/C=C/c1ccc2c(c1)OCO2)N1CCCCC1`, 50 µg/mL.
For `COc1cc2c(cc1OC)CCC(/C=C/C(=O)N1CCCCC1)=C2` the value was over 100 µg/mL.
For `CC(C)N(C(=O)/C=C/C1=Cc2ccccc2CC1)C(C)C` the value was 25 µg/mL.
Regarding `COc1cc2c(cc1OC1CC1)C=C(/C=C/C(=O)N1CCCCC1)CC2`, the MEC is over 100 µg/mL.
Regarding `O=C(/C=C/C1=C(c2ccccc2)c2ccccc2CC1)N1CCCCC1`, the MEC was found to be 12.5 µg/mL.
In the case of `CC(C)CNC(=O)/C=C/C1=C(c2ccccc2)c2ccccc2CC1`, the MEC was over 100 µg/mL.
Consider `O=C(/C=C/C1=C(Cc2ccccc2)c2ccccc2CC1)N1CCCCC1`, for which the MEC worked out at 25 µg/mL.
Compound `O=C(/C=C/C1=Cc2ccccc2CC1)N1CCCCC1` came in with an MEC of 25 µg/mL.
Regarding `CC(C)CN(CC(C)C)C(=O)/C=C/C1=C(c2ccccc2)c2ccccc2CC1`, the MEC was over 100 µg/mL.
For `Cc1ccccc1NC(=O)/C=C/C1=Cc2ccccc2CC1` the value was 25 µg/mL; for `O=C(CCC1CCc2ccccc2C1)N1CCCCC1` (stereo not given), 25 µg/mL; for `COc1ccc(NC(=O)/C=C/C2=Cc3ccccc3CC2)cc1`, 25 µg/mL.

For the origin of these results see ChEMBL document CHEMBL1240453, “Substituted dihydronaphthalenes as efflux pump inhibitors of Staphylococcus aureus” (2010).
